# Values of other authors as cited in article PMC7395068, “The evolution of strategies to minimise the risk of human drug-induced liver injury (DILI) in drug discovery and development” (Archives of Toxicology, 2020).
# B1: ibritumomab tiuxetan (conjugate, chains of the INN, looked up)
# heavy: QAYLQQSGAELVRPGASVKMSCKASGYTFTSYNMHWVKQTPRQGLEWIGAIYPGNGDTSYNQKFKGKATLTVDKSSSTAYMQLSSLTSEDSAVYFCARVVYYSNSYWYFDVWGTGTTVTVSAPSVYPLAPVCGDTTGSSVTLGCLVKGYFPEPVTLTWNSGSLSSGVHTFPAVLQSDLYTLSSSVTVTSSTWPSQSITCNVAHPASSTKVDKKIEPRGPTIKPCPPCKCPAPNLLGGPSVFIFPPKIKDVLMISLSPIVTCVVVDVSEDDPDVQISWFVNNVEVHTAQTQTHREDYNSTLRVVSALPIQHQDWMSGKEFKCKVNNKDLPAPIERTISKPKGSVRAPQVYVLPPPEEEMTKKQVTLTCMVTDFMPEDIYVEWTNNGKTELNYKNTEPVLDSDGSYFMYSKLRVEKKNWVERNSYSCSVVHEGLHNHHTTKSFSR
# light: QIVLSQSPAILSASPGEKVTMTCRASSSVSYMHWYQQKPGSSPKPWIYAPSNLASGVPARFSGSGSGTSYSLTISRVEAEDAATYYCQQWSFNPPTFGAGTKLELKRADAAPTVFIFPPSDEQLKSGTASVVCLLNNFYPREAKVQWKVDNALQSGNSQESVTEQDSKDSTYSLSSTLTLSKADYEKHKVYACEVTHQGLSSPVTKSFN
# modifications: tiuxetan chelator
# Conditions: binary in vivo human DILI call; ref Chen 2016
molecule,measurement,value
B1,"DILI +VE (5-8), DILI -VE (-4)",-VE
